# Experimental data taken from patent US20160280736A1, “CYCLIC PEPTIDE COMPOUND, AND PREPARATION METHOD, PHARMACEUTICAL COMPOSITION AND USE THEREOF” (HANGZHOU GUANYU BIO-MEDICAL CO., LTD., priority 2013, published 2016).
# Chains of the proteins cited; added tags and fusions are not shown.
# UniProt Q8WUI4, whole entry: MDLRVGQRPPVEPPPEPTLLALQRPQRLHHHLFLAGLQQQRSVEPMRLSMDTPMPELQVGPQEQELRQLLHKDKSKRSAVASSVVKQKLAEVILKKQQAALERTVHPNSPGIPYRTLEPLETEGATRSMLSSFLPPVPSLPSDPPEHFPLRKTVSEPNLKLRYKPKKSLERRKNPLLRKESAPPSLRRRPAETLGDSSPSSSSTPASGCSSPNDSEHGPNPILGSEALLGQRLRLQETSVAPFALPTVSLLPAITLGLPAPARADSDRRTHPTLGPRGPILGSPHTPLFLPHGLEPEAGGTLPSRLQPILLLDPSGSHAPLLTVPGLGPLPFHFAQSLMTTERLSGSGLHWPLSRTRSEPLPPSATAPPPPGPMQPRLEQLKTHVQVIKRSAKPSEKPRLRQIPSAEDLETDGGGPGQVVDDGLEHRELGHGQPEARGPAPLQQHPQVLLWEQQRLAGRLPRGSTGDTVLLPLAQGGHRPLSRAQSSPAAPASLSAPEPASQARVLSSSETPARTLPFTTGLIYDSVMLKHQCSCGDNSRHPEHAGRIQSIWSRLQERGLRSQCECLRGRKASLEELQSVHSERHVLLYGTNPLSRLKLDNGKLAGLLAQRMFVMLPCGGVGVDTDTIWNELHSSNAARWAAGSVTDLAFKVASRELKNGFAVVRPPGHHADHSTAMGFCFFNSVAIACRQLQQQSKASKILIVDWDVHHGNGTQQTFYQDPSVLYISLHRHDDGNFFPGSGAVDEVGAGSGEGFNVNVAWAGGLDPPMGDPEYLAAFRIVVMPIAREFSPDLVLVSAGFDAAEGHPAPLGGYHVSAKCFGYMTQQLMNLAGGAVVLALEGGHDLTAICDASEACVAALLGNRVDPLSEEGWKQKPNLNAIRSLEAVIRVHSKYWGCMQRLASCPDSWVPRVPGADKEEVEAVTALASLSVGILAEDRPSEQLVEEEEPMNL
# Target: HDAC7 (Homo sapiens, UniProt Q8WUI4)
# Experiment: HDAC biochemical activity measurement (fluorescent substrate deacetylation)
# Conditions: HDAC7 enzyme, 37°, 30 minutes
row,SMILES,IC50 (μM) HDAC7
1,C/C=C1\NC(=O)c2nc(ccc2SC)CNC(=O)C[C@@H](/C=C/CCSC(=O)CCCCCCC)OC(=O)[C@H](CC)NC1=O,no activity
2,C/C=C1\NC(=O)c2nc(ccc2SC)CNC(=O)C[C@@H](/C=C/CCSC=O)OC(=O)[C@H](C(C)C)NC1=O,no activity
3,C/C=C1\NC(=O)c2nc(ccc2SC)CNC(=O)C[C@@H](/C=C/CCSC(=O)CCCCCCC)OC(=O)[C@H](C(C)C)NC1=O,no activity
4,C/C=C1\NC(=O)c2cccc(n2)CNC(=O)C[C@@H](/C=C/CCSC(=O)CCCCC)OC(=O)[C@H](C(C)C)NC1=O,no activity
5,C=C1NC(=O)c2cc(SC)cc(n2)CNC(=O)C[C@@H](/C=C/CCSC(C)=O)OC(=O)[C@H](C(C)C)NC1=O,no activity
6,C/C=C1\NC(=O)c2cccc(n2)CCNC(=O)C[C@@H](/C=C/CCS)OC(=O)[C@H](C(C)C)NC1=O,no activity
7,C/C=C1\NC(=O)c2nc(ccc2SC)CNC(=O)C[C@@H](/C=C/CCSC(=O)CCCCC)OC(=O)[C@H](C(C)C)NC1=O,no activity
8,C/C=C1\NC(=O)c2cc(SC)cc(n2)CNC(=O)C[C@@H](/C=C/CCSC(C)=O)OC(=O)[C@H](CC)NC1=O,no activity
9,C/C=C1\NC(=O)c2ccc(SC)c(n2)CNC(=O)C[C@@H](/C=C/CCSC(C)=O)OC(=O)[C@H](CC)NC1=O,no activity
10,C/C=C1\NC(=O)c2cccc(n2)CNC(=O)C[C@@H](/C=C/CCSC(=O)CCCCCCC)OC(=O)[C@H](CCSC)NC1=O,no activity
11,C/C=C1\NC(=O)c2cc(SCCC)cc(n2)CNC(=O)C[C@@H](/C=C/CCSC(=O)CCCCCCC)OC(=O)[C@H](CC)NC1=O,no activity
12,C/C=C1\NC(=O)c2ccc(SC)c(n2)CNC(=O)C[C@@H](/C=C/CCSC(=O)CCCCCCC)OC(=O)[C@H](Cc2ccccc2)NC1=O,no activity
13,C/C=C1\NC(=O)c2cccc(n2)CNC(=O)C[C@@H](/C=C/CCSC(=O)CCCCCCC)OC(=O)[C@H](CSCC)NC1=O,no activity
14,C/C=C1\NC(=O)c2cccc(n2)CNC(=O)C[C@@H](/C=C/CCS)OC(=O)[C@@H](C)NC1=O,no activity
15,C/C=C1\NC(=O)c2nc(ccc2F)CCNC(=O)C[C@@H](/C=C/CCSC(C)=O)OC(=O)[C@H](C(C)C)NC1=O,no activity
16,C/C=C1\NC(=O)c2cc(SC)cc(n2)CNC(=O)C[C@@H](/C=C/CCSC(=O)CCCCCC)OC(=O)[C@H](C(C)C)NC1=O,no activity
17,C/C=C1\NC(=O)c2ccc(SC)c(n2)CNC(=O)C[C@@H](/C=C/CCSC(=O)CCCCCCC)OC(=O)[C@H](CC)NC1=O,no activity
18,C/C=C1\NC(=O)c2cc(F)cc(n2)CNC(=O)C[C@@H](/C=C/CCSC(C)=O)OC(=O)[C@H](C(C)C)NC1=O [Compound 49],no activity
19,C/C=C1\NC(=O)c2cc(SC)cc(n2)CNC(=O)C[C@@H](/C=C/CCSC(C)=O)OC(=O)[C@H](CCCCN)NC1=O,no activity
20,C/C=C1\NC(=O)c2cccc(n2)CNC(=O)C[C@@H](/C=C/CCSC=O)OC(=O)[C@H](C(C)C)NC1=O,no activity
21,C/C=C1\NC(=O)c2nc(ccc2SCCC)CNC(=O)C[C@@H](/C=C/CCSC(=O)CCCCCCC)OC(=O)[C@H](CC)NC1=O,no activity
22,C/C=C1\NC(=O)c2cccc(n2)CNC(=O)C[C@@H](/C=C/CCSC(=O)CCCCCCC)OC(=O)[C@H](CC(C)C)NC1=O,no activity
23,C/C=C1\NC(=O)c2cc(F)cc(n2)CCNC(=O)C[C@@H](/C=C/CCSC(C)=O)OC(=O)[C@H](C(C)C)NC1=O,no activity
24,C/C=C1\NC(=O)c2cccc(n2)CNC(=O)C[C@@H](/C=C/CCSC(C)=O)OC(=O)[C@H](CC)NC1=O,no activity
25,C/C=C1\NC(=O)c2cc(SC)cc(n2)CNC(=O)C[C@@H](/C=C/CCSC=O)OC(=O)[C@H](C(C)C)NC1=O,no activity
26,C/C=C1\NC(=O)c2nc(ccc2SC)CNC(=O)C[C@@H](/C=C/CCS)OC(=O)[C@H](C)NC1=O,no activity
